# Antibody variant affinities, Ab-95 light chain, assay 2

Binding partner: SARS-CoV-2 spike HR2 peptide, sequence PDVDLGDISGINAS.

Parent scFv Ab-95: VH joined to VL by a (GGGGS)3 linker. Changes lie in the light chain CDRs alone.
VH: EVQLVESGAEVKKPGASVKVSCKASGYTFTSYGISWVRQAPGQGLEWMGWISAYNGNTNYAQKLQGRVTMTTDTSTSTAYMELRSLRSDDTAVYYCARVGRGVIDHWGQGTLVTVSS
VL: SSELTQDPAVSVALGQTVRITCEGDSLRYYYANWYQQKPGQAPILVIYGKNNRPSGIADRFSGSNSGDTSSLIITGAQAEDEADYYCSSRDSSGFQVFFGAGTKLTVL

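AAYL52 was designed without a model: most single CDR substitutions and a random sample of double and triple ones. The scFvs were displayed on barcoded MATa yeast, the peptide on MATalpha yeast. After mating in shaken culture at 30 °C for 16 h, diploids were selected and their barcode pairs sequenced. A regression on co-assayed BCL2-family reference pairs converts the normalised counts of each replicate to an apparent Kd. Each pool was mated in three replicate cultures.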

Changes read parent residue, position, new residue, counted from the first residue of the VL shown. The read-out is the apparent dissociation constant on a log10 scale (nM): the lower, the stronger. A mean of the replicates is given; it leaves out those without a signal. Where no diploid with the target was found in that replicate, the entry reads "n.d.": below detection, most likely a poor binder, though not proof of it.

changes	replicates, log10 nM	log10 Kd (nM), mean	empty controls
S88D S92R	2.20 2.37 3.95	2.84	2 of 9 (4.37)
L27T K50Q P54E	n.d. n.d. n.d.	n.d.	1 of 9 (4.36)
N51M S92Y	3.98 3.43 3.61	3.67	3 of 9 (4.24)
G24L S55G F98A	n.d. n.d. 2.21	2.21	1 of 9 (4.28)
Y31M N33C S55C	5.59 3.52 n.d.	4.55	1 of 9 (4.11)
E23G G49L K50W	4.61 5.87 n.d.	5.24	4 of 9 (4.38)
L27K Y31C N52W	n.d. n.d. n.d.	n.d.	2 of 9 (3.43)
D25K S92A F95R	2.46 2.39 1.82	2.22	5 of 9 (4.28)
K50R	2.49 2.17 2.05	2.24	6 of 9 (4.35)
L27E D91V	2.54 3.87 3.19	3.20	5 of 9 (3.52)
Y29S Y30R R90G	2.97 2.93 2.88	2.93	2 of 9 (3.36)
Y31E D91I S93T	2.03 1.52 1.92	1.82	3 of 9 (3.64)
Y29L Y30S S92A	1.30 1.08 0.48	0.95	4 of 9 (4.03)
E23M N52E S92D	2.76 2.49 2.39	2.55	4 of 9 (4.12)
S26W P54Y R90T	3.54 3.49 n.d.	3.52	1 of 9 (2.81)
D25A R28G S88N	2.81 2.47 3.13	2.80	2 of 9 (3.37)
G49C N51E D91C	3.83 n.d. n.d.	3.83	5 of 9 (3.72)
N51D	2.41 2.39 2.43	2.41	6 of 9 (3.89)
D25R S89G V97A	2.18 2.68 2.25	2.37	1 of 9 (3.71)
E23P S26T S89D	5.43 n.d. n.d.	5.43	0 of 9
Y31M R53K F95M	2.59 2.96 2.32	2.62	1 of 9 (3.90)
G24Q Y29V Y30W	3.42 3.39 n.d.	3.41	5 of 9 (4.19)
S26F Y30D G94C	2.23 2.04 2.44	2.24	2 of 9 (4.71)
Y30C A32L P54Y	3.86 3.66 2.74	3.42	2 of 9 (4.30)
G24T L27W Y29T	4.51 4.26 n.d.	4.38	3 of 9 (4.52)
D25L S26Y P54M	n.d. 3.57 n.d.	3.57	3 of 9 (4.65)
Y30N R90P F95T	1.03 0.84 0.01	0.63	7 of 9 (3.84)
S88D F95L V97H	3.36 n.d. n.d.	3.36	5 of 9 (3.54)
E23Q L27Q G49W	n.d. n.d. n.d.	n.d.	2 of 9 (3.49)
R28P Y30E N51F	3.25 6.04 3.91	4.40	3 of 9 (4.29)
G49M S89K D91R	n.d. n.d. n.d.	n.d.	0 of 9
E23F R28V P54D	n.d. n.d. n.d.	n.d.	0 of 9
L27R Y31G S55L	2.81 3.18 2.42	2.80	1 of 9 (3.74)
D25V S26V	2.96 2.75 2.46	2.72	4 of 9 (4.20)
D25A A32T K50V	2.84 2.78 2.67	2.76	3 of 9 (3.71)
G24W R90N	3.09 5.21 n.d.	4.15	5 of 9 (3.51)
D25V Y31Q	1.63 1.61 1.02	1.42	1 of 9 (4.06)
Y30N N52H R90C	2.52 2.23 1.52	2.09	5 of 9 (3.88)
Y30L N52S D91C	2.90 3.10 n.d.	3.00	5 of 9 (3.43)
G49I S89N F98P	5.41 5.49 n.d.	5.45	3 of 9 (4.10)
E23C N51K G94H	n.d. n.d. n.d.	n.d.	1 of 9 (4.61)
D25Q N33Y R90K	n.d. 5.44 n.d.	5.44	3 of 9 (4.09)
Y31R R53H P54H	5.29 3.13 3.38	3.93	5 of 9 (4.03)
R28T Y30N K50T	1.03 1.06 0.54	0.88	7 of 9 (3.89)
G24N L27Y S55W	4.21 5.68 n.d.	4.95	1 of 9 (3.75)
N52M S88Q	3.34 3.54 3.68	3.52	1 of 9 (3.39)
D25H N51P S93T	3.26 3.41 n.d.	3.34	0 of 9
S26I L27K F98M	n.d. n.d. n.d.	n.d.	0 of 9
P54F S55E S89I	3.02 2.75 4.00	3.26	5 of 9 (4.14)
R28W S93Q V97K	4.00 5.54 3.41	4.32	3 of 9 (4.33)
Y31D P54C S55E	1.05 1.26 0.32	0.88	2 of 9 (3.55)

From the list, the first 5 with no signal in any replicate:

{"changes": "L27T K50Q P54E", "replicates, log10 nM": "n.d. n.d. n.d.", "log10 Kd (nM), mean": "n.d.", "empty controls": "1 of 9 (4.36)"}
{"changes": "L27K Y31C N52W", "replicates, log10 nM": "n.d. n.d. n.d.", "log10 Kd (nM), mean": "n.d.", "empty controls": "2 of 9 (3.43)"}
{"changes": "E23Q L27Q G49W", "replicates, log10 nM": "n.d. n.d. n.d.", "log10 Kd (nM), mean": "n.d.", "empty controls": "2 of 9 (3.49)"}
{"changes": "G49M S89K D91R", "replicates, log10 nM": "n.d. n.d. n.d.", "log10 Kd (nM), mean": "n.d.", "empty controls": "0 of 9"}
{"changes": "E23F R28V P54D", "replicates, log10 nM": "n.d. n.d. n.d.", "log10 Kd (nM), mean": "n.d.", "empty controls": "0 of 9"}

In this assay the parent's reference entry averaged 2.31; its copy inside this library read 2.25. Three control strains display no target. For library AAYL52, 28% of the pairings with them gave a signal, with a median of 3.91 and one signal in twenty below 2.90, so weak values seen in few replicates may be background. For each scFv, signals with the empty controls are counted beside the result, with their mean in brackets.

Reference: Engelhart et al. 2022, doi:10.1038/s41597-022-01779-4. File: FLAb, binding data.